Laboratory results taken from patent publication US5104858A, “Sensitizing multidrug resistant cells to antitumor agents” (priority 1988, dated 1992).
“Also recorded” adds a separate entry of the source.

Tests used:
MCF-7 cells = settings: 3 hours, 15 μM doxorubicin; 3 μM cis- or 6 μM trans-flupenthixol
MCF-7/DOX cells [1] = settings: 50% inhibition of MCF-7/DOX cell growth, 48 hours
acute schizophrenia = settings: clinical trial, Johnston et al; cited from earlier work
MCF-7/DOX cells [2] = assay: Antagonism of multidrug resistance (sensitization to doxorubicin) in MCF-7/DOX cells, MDR Ratio
dopamine receptors = settings: cited from earlier work

SMILES | effect on accumulation of doxorubicin in the sensitive line (MCF-7 cells) | interaction of doxorubicin and trans-flupenthixol by isobologram analysis (MCF-7/DOX cells [1]) | antipsychotic effect (acute schizophrenia) | MDR Ratio (IC50 doxorubicin alone / IC50 doxorubicin in presence of modifier) (MCF-7/DOX cells [2]) | relative anti-MDR potency of trans versus cis isomer (MCF-7/DOX cells [2]) [fold] | antagonism of MDR (MCF-7/DOX cells [2]; human, mcf-7/dox cells) [fold] | dopamine antagonism (dopamine receptors)
OCCN1CCN(CC/C=C2\c3ccccc3Sc3ccc(C(F)(F)F)cc32)CC1 [trans-Flupenthixol] | no significant effect | synergistic | no activity as an anti-psychotic | 15.2 | 3 | 15 to 37 | –
OCCN1CCN(CC/C=C2/c3ccccc3Sc3ccc(C(F)(F)F)cc32)CC1 [cis-Flupenthixol] | no significant effect | – | potent neuroleptic; also recorded: far more effective than trans-flupenthixol | 4.8 | – | – | powerful antagonist of dopamine receptors
